Results from patent US20070129307A1, “Insulin epitopes for the treatment of type 1 diabetes” (The University of British Columbia, priority 2001, published 2007).

Test system: HLA-A2 restricted CD8+ T cells (PBMC)
Conditions: for proportion of responsive T1D subjects / proportion of responsive T1D subjects (number) / IFN-γ secretion by PBMC of control subjects: first study; for proportion of responsive T1D subjects / proportion of responsive T1D subjects (number) / recent-onset T1D patients with responses / recent-onset T1D patients with responses (number): HLA-A*0201 recent-onset T1D patients; for proportion of responsive T1D subjects (number): cut-off 12 spots/2×10^5 cells; for IFN-γ secretion by PBMC of control subjects: non-HLA-A*0201 recent-onset T1D and HLA-A*0201 non-diabetic subjects; for recent-onset T1D patients with responses / recent-onset T1D patients with responses (number): second study

Sequence | proportion of responsive T1D subjects [%] | proportion of responsive T1D subjects (number) | IFN-γ secretion by PBMC of control subjects | recent-onset T1D patients with responses [%] | recent-onset T1D patients with responses (number)
FLFAVGFYL [IGRP215] | 68 | 13 of 19 | none of the control subjects |  | 
FLIVLSVAL (IAPP precursor peptide - type 1 diabetes immunodominant epitope) [IAPP9] | 37 | 7 of 19 | none of the control subjects |  | 
FLWSVFMLI [IGRP152] | 42 | 8 of 19 | none of the control subjects |  | 
HLVEALYLV [InsulinB10] |  |  |  | 18 | 2 of 11
SLAAGVKLL [IA-2(482)] |  |  |  | 27 | 3 of 11
SLSPLQAEL [IA-2(172)] |  |  |  | 18 | 2 of 11
